Measured values taken from patent US20260256870A1, “SKIN COMPOSITION” (Eaderm Co., Ltd., priority 2019, published 2026).

Assays:
[1] = test system: COL17A1; assay: COL17A1 expression in human epidermal keratinocytes by high content imaging (HCS); assay type: cell-based; settings: Table 3; anticancer drugs and molecularly targeted drugs
Method: The present inventors further searched for substances that induce or maintain the expression of COL17A1. Human epidermal keratinocytes were seeded in 384-well plates, cultured for 48 hours after addition of reagents, immunostained with an anti-COL17A1 antibody and a fluorescently labeled secondary antibody, and then the fluorescence intensity per cell was detected using a high content imaging system (HCS: High Content Screening). In addition to cell counting with DAPI, the expression level of COL17A1 was quantified.

[2] = test system: skin damage induced by anticancer drugs; assay: TEWL after EGF receptor inhibitor administration (Example 9); settings: control mice about 18 months old, 50 mg/kg/day intraperitoneal, day 7 (FIG. 18)
Description: A 0.5% methylcellulose solution of the solvent was similarly administered to the control non-treated group. […] Measurements were taken at specific sites on the back of the mice (two sites symmetrically located on the left side and right side from the center of the spine) using Tewameter TN300 (Courage+Khazaka, Integral Corporation, Germany).

COc1cc2ncnc(Nc3ccc(F)c(Cl)c3)c2cc1OCCCN1CCOCC1 [Gefitinib]
COL17A1 expression level (control ratio) [1]: 0.76
TEWL [2]: significantly increased
